The entries are a selection whose mix differs from that of the whole data set. Calls of active or inactive are those of the source. Rule as the data show it: active = activation above about 80%; inactive = the rest.

Chains of the proteins cited; added tags and fusions are not shown.
UniProt P21453, whole entry: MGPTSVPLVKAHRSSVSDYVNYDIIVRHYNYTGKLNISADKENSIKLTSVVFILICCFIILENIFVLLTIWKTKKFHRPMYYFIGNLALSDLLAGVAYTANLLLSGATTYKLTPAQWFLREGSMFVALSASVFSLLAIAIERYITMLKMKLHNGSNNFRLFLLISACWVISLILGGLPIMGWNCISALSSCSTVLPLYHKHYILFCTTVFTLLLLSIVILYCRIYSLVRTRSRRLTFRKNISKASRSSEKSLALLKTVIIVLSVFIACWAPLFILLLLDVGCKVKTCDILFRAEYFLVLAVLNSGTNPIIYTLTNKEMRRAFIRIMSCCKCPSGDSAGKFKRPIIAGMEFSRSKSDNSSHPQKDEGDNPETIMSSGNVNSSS

The target in this assay is Sphingosine 1-phosphate receptor 1 (Homo sapiens) (UniProt P21453). Put plainly: S1P1 (human) receptor agonism (AID 1044). Conditions: S1P1 agonist cell-based reporter assay; at 4.5 µM; active compounds read high.
As to `Cc1ccccc1NC1CC(C)(C)NC(C)(C)C1`, the activation was inactive: 3.32%.

For the origin of these results see PubChem BioAssay AID1044 (The Scripps Research Institute Molecular Screening Center, 2008).
